These are literature values, as cited in publication PMC2897767, “Two Distinct Mechanisms for Actin Capping Protein Regulation—Steric and Allosteric Inhibition” (PLoS Biology, 2010).

The target of this data set is CP. To be noted: previously reported value; cited from earlier work. As to the method:
We tested the importance of the C-terminal flanking regions of the CP-binding motif using a binding assay (Table 2; the constructs used for the measurement are shown in Figure 9B). […] GST-CD47, containing CD Phe505, bound to CP with a KD of 1 ... || Fujiwara, et al. reported that the mCAH3 fragment (mouse CARMIL residues 965-1038) tightly binds to CP (KD ~ 1 nM) whereas GST-CA76 (residues 962-1037) in the present study interacts weakly with CP (Table 2). In the second CP binding site in the CP/CBR115 complex, human CARMIL Val1034 (corresponding to mouse CA1038), which is missing in GST-76, forms multiple interactions with CP α-subunit residues. Thus, the absence of this key valine in GST-CA76 results in the lower CP binding affinity compared with the full active CARMIL fragments.

For the substance “GST-CD2AP fragment: GST-CD2AP fragment containing residues 474–513, literature value (VVNFDDIASSENLLHLTANRPKMPGRRLPGRFNGGHSPTH; GST fusion; UniProt Q9Y5K6 474-513, looked up, fragment) [reference compound]”, the Kd is 5.6 nM.

The Kd is the constant that tells how readily two partners part at equilibrium.
